Reference: ChEMBL document CHEMBL1127305, “kappa Opioid receptor selective affinity labels: electrophilic benzeneacetamides as kappa-selective opioid antagonists” (J Med Chem, 1994)

By UniProt entry, the sequences of proteins in these tests, tags left out.
UniProt P41144, whole entry: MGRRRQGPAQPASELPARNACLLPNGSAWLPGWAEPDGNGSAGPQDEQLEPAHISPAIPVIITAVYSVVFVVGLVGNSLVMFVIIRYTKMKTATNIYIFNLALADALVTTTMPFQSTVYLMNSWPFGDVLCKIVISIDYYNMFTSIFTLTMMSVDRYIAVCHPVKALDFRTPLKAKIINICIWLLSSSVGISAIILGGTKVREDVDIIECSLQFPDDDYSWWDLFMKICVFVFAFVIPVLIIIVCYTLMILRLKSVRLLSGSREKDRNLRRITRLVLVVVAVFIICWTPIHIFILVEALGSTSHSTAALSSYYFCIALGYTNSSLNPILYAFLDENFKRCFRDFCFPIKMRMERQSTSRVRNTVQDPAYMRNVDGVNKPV
UniProt P42866, whole entry: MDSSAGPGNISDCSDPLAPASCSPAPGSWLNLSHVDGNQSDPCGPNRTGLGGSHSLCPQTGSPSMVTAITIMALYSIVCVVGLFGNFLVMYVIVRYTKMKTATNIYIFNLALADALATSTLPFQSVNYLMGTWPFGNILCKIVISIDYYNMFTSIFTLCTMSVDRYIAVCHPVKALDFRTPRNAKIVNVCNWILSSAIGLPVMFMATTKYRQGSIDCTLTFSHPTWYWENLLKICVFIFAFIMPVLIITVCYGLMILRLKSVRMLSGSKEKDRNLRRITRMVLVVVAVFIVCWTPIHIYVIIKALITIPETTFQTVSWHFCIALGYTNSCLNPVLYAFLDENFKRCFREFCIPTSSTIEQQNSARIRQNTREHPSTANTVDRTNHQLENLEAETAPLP
UniProt P33534, whole entry: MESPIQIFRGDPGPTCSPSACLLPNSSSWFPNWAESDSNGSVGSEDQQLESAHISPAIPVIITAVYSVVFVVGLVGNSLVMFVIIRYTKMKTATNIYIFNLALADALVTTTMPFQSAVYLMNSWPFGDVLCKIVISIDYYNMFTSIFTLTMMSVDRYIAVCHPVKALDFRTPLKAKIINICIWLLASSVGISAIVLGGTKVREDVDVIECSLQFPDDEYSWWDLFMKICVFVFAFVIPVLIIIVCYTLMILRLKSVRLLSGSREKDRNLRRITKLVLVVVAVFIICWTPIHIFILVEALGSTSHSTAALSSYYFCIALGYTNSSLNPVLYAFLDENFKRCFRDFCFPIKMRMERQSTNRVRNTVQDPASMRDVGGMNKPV
UniProt P32300, whole entry: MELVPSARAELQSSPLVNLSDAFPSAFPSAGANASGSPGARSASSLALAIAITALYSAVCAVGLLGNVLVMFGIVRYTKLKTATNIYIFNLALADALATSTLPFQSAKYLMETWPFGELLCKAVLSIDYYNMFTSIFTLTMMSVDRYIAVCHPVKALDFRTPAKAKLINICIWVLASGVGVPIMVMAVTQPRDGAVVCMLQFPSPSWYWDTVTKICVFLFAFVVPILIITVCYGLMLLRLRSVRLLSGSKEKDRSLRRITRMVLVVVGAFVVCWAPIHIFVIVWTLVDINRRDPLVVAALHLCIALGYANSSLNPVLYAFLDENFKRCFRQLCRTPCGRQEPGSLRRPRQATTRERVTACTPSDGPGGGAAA

How the values were obtained:
[1] = molecular target: Kappa-type opioid receptor (Cavia porcellus) (UniProt P41144); assay: Bmax for kappa opioid receptor in guinea pig brain membranes [3H]U-69593 as radioligand; details: Membrane
[2] = molecular target: Mu-type opioid receptor (Mus musculus) (UniProt P42866); assay: Agonist selectivity for mu opioid receptor in the beta-funaltrexamine-treated mice Subcutaneous dose of 20.36 umol/kg of beta-FNA was administered
[3] = molecular target: Kappa-type opioid receptor (Mus musculus) (UniProt P33534); assay: Agonist selectivity for kappa opioid receptor in the naltrindole-treated mice. Subcutaneous dose of 12.25 umol/kg of norBNI was administered
[4] = molecular target: Delta-type opioid receptor (Mus musculus) (UniProt P32300); assay: Agonist selectivity for delta opioid receptor in the naltrindole-treated mice Subcutaneous dose of 44.44 umol/kg of naltrindole was administered

Row | Structure (SMILES) | Bmax [1] | ED50 ratio [2] | ED50 ratio [3] | ED50 ratio [4]
1 | CN(C(=O)Cc1ccc(Cl)c(Cl)c1)[C@H](CN1CCCC1)c1cccc(N)c1 | 23.4 fM/mg | – | – | –
2 | CN(C(=O)Cc1ccc(Cl)c(Cl)c1)[C@H](CN1CCCC1)c1ccccc1 [ICI-199,441] | – | 1.72 | 2.31 | 1.19
